From US20150150960A1, “PROTECTION AGAINST DENGUE VIRUS AND PREVENTION OF SEVERE DENGUE DISEASE” (priority 2010, published 2015)

tested on: PBMC of DENV seropositive human donors; assay type: cell-based; conditions: allele B*3501; ex vivo IFNγ ELISPOT, Sri Lankan donors

SMILES | T cell response [SFC]
CC(C)C[C@H](NC(=O)[C@@H](NC(=O)[C@H](C)NC(=O)[C@H](CCC(=O)O)NC(=O)CNC(=O)[C@H](CCC(N)=O)NC(=O)[C@@H](NC(=O)[C@@H]1CCCN1C(=O)[C@@H](N)CS)[C@@H](C)O)[C@@H](C)O)C(=O)O | 143
CC(C)C[C@H](NC(=O)[C@@H](NC(=O)[C@H](C)NC(=O)[C@H](CCC(=O)O)NC(=O)CNC(=O)[C@H](CCC(N)=O)NC(=O)[C@@H](NC(=O)[C@@H]1CCCN1C(=O)[C@@H](N)CS)[C@@H](C)O)C(C)C)C(=O)O | 135
CC[C@H](C)[C@H](NC(=O)[C@@H]1CCCN1C(=O)[C@@H](N)CC(=O)O)C(=O)N1CCC[C@H]1C(=O)N[C@@H](Cc1ccc(O)cc1)C(=O)N[C@@H](CC(=O)O)C(=O)N1CCC[C@H]1C(=O)N[C@@H](CCCCN)C(=O)N[C@@H](Cc1ccccc1)C(=O)O | 77
CC[C@H](C)[C@H](NC(=O)[C@H](C)NC(=O)CNC(=O)[C@@H](N)Cc1ccccc1)C(=O)N[C@@H](Cc1ccc(O)cc1)C(=O)NCC(=O)N[C@@H](C)C(=O)N[C@@H](C)C(=O)N[C@@H](Cc1ccccc1)C(=O)O | 28
CC(C)C[C@H](NC(=O)[C@@H](NC(=O)[C@H](Cc1c[nH]c2ccccc12)NC(=O)[C@H](C)NC(=O)[C@H](CO)NC(=O)[C@H](C)NC(=O)[C@@H]1CCCN1C(=O)[C@@H](N)Cc1c[nH]cn1)[C@@H](C)O)C(=O)N[C@@H](Cc1ccc(O)cc1)C(=O)O | 38
CC[C@H](C)[C@H](N)C(=O)N[C@@H](C)C(=O)N[C@@H](CC(N)=O)C(=O)N[C@@H](CCC(N)=O)C(=O)N[C@@H](C)C(=O)N[C@H](C(=O)N[C@H](C(=O)N[C@@H](CC(C)C)C(=O)N[C@@H](CCSC)C(=O)O)C(C)C)[C@@H](C)O | 220
CC[C@H](C)[C@H](N)C(=O)N[C@@H](C)C(=O)N[C@H](C(=O)N[C@@H](CO)C(=O)N[C@@H](CCSC)C(=O)N[C@@H](C)C(=O)N[C@@H](CC(N)=O)C(=O)N[C@H](C(=O)N[C@@H](Cc1ccccc1)C(=O)O)[C@@H](C)CC)C(C)C | 118
CC(C)C[C@H](NC(=O)[C@H](Cc1c[nH]c2ccccc12)NC(=O)[C@@H](NC(=O)[C@@H]1CCCN1C(=O)[C@@H](N)CC(C)C)C(C)C)C(=O)N[C@@H](C)C(=O)N[C@@H](Cc1ccc(O)cc1)C(=O)N[C@@H](CCCCN)C(=O)N[C@H](C(=O)N[C@@H](C)C(=O)O)C(C)C | 27
CC[C@H](C)[C@H](NC(=O)[C@H](CC(N)=O)NC(=O)[C@H](C)NC(=O)[C@@H](N)CCSC)C(=O)N[C@@H](Cc1ccccc1)C(=O)N[C@@H](CCCNC(=N)N)C(=O)NCC(=O)N[C@@H](CO)C(=O)N[C@@H](Cc1ccc(O)cc1)C(=O)O | 5982
CSCC[C@H](NC(=O)[C@@H](NC(=O)[C@H](CCSC)NC(=O)[C@H](CO)NC(=O)[C@@H]1CCCN1C(=O)[C@@H](NC(=O)[C@@H](NC(=O)[C@H](CC(C)C)NC(=O)[C@@H](N)CCSC)C(C)C)[C@@H](C)O)[C@@H](C)O)C(=O)O | 115
CSCC[C@H](NC(=O)[C@@H]1CCCN1C(=O)[C@@H](NC(=O)[C@@H](NC(=O)[C@H](Cc1ccccc1)NC(=O)[C@@H](NC(=O)[C@@H](NC(=O)[C@H](C)NC(=O)[C@@H](N)C(C)C)[C@@H](C)O)[C@@H](C)O)C(C)C)[C@@H](C)O)C(=O)O | 268
CC[C@H](C)[C@H](NC(=O)[C@H](C)NC(=O)[C@H](CC(C)C)NC(=O)[C@H](CC(C)C)NC(=O)[C@@H]1CCCN1C(=O)[C@@H](N)C(C)C)C(=O)NCC(=O)N[C@@H](CS)C(=O)N[C@@H](Cc1ccc(O)cc1)C(=O)O | 213

same assay, conditions: allele B*4001; ex vivo IFNγ ELISPOT, Sri Lankan donors

SMILES | T cell response [SFC]
CC(C)C[C@H](NC(=O)[C@H](CCCNC(=N)N)NC(=O)[C@H](Cc1ccccc1)NC(=O)[C@H](CCC(=O)O)NC(=O)CN)C(=O)N[C@@H](CCCNC(=N)N)C(=O)NCC(=O)N[C@@H](CCC(=O)O)C(=O)N[C@@H](CCC(N)=O)C(=O)N[C@@H](CCCNC(=N)N)C(=O)O | 273
CSCC[C@H](NC(=O)[C@H](CC(C)C)NC(=O)[C@@H](NC(=O)[C@H](CCC(=O)O)NC(=O)[C@@H](N)CC(C)C)[C@@H](C)O)C(=O)N[C@@H](CC(C)C)C(=O)N[C@H](C(=O)N[C@@H](C)C(=O)N[C@@H](CC(C)C)C(=O)N[C@@H](CC(C)C)C(=O)O)C(C)C | 185
CC[C@H](C)[C@H](NC(=O)[C@H](CCC(=O)O)NC(=O)[C@@H](N)CCCNC(=N)N)C(=O)N1CCC[C@H]1C(=O)N[C@@H](CCC(=O)O)C(=O)N[C@@H](CCCNC(=N)N)C(=O)N[C@@H](CO)C(=O)N[C@@H](Cc1c[nH]c2ccccc12)C(=O)N[C@@H](CC(N)=O)C(=O)N[C@H](C(=O)O)[C@@H](C)O | 93
C[C@@H](O)[C@H](NC(=O)[C@H](Cc1ccccc1)NC(=O)[C@H](CS)NC(=O)[C@H](Cc1c[nH]c2ccccc12)NC(=O)[C@H](CCC(=O)O)NC(=O)[C@@H](N)CCCNC(=N)N)C(=O)NCC(=O)N[C@@H](CCC(=O)O)C(=O)N[C@@H](CCCNC(=N)N)C(=O)N[C@@H](CC(N)=O)C(=O)O | 48
CSCC[C@H](NC(=O)CNC(=O)[C@H](CCCCN)NC(=O)[C@H](CC(C)C)NC(=O)[C@H](C)NC(=O)[C@H](CCC(=O)O)NC(=O)[C@H](C)NC(=O)[C@H](CCSC)NC(=O)[C@H](CCC(=O)O)NC(=O)[C@@H](N)CO)C(=O)O | 120

same assay, conditions: allele B*4402; ex vivo IFNγ ELISPOT, Sri Lankan donors

SMILES | T cell response [SFC]
CC[C@H](C)[C@H](NC(=O)[C@@H](NC(=O)[C@H](CO)NC(=O)[C@H](Cc1ccc(O)cc1)NC(=O)[C@H](CCCCN)NC(=O)[C@H](CC(C)C)NC(=O)[C@H](CC(N)=O)NC(=O)[C@H](CCC(=O)O)NC(=O)[C@@H](N)Cc1ccc(O)cc1)C(C)C)C(=O)O | 37

same assay, conditions: allele B*4403; ex vivo IFNγ ELISPOT, Sri Lankan donors

SMILES | T cell response [SFC]
CSCC[C@H](NC(=O)[C@@H](NC(=O)[C@H](Cc1c[nH]cn1)NC(=O)[C@H](Cc1ccccc1)NC(=O)[C@@H](NC(=O)CNC(=O)[C@H](CCC(=O)O)NC(=O)[C@@H](N)CCSC)C(C)C)[C@@H](C)O)C(=O)N[C@@H](Cc1c[nH]c2ccccc12)C(=O)O | 68

same assay, conditions: allele B*5101; ex vivo IFNγ ELISPOT, Sri Lankan donors

SMILES | T cell response [SFC]
CC[C@H](C)[C@H](NC(=O)[C@H](CO)NC(=O)[C@H](CC(C)C)NC(=O)[C@H](C)NC(=O)[C@@H](N)CCSC)C(=O)N[C@H](C(=O)N[C@@H](CO)C(=O)N[C@@H](CC(C)C)C(=O)N[C@@H](Cc1ccccc1)C(=O)O)C(C)C | 340

same assay, conditions: allele B*5801; ex vivo IFNγ ELISPOT, Sri Lankan donors

SMILES | T cell response [SFC]
CC[C@H](C)[C@H](NC(=O)[C@@H]1CCCN1C(=O)CNC(=O)[C@@H](NC(=O)[C@H](C)N)[C@@H](C)O)C(=O)N[C@@H](CC(C)C)C(=O)N[C@H](C(=O)N[C@@H](CC(C)C)C(=O)N[C@@H](Cc1c[nH]c2ccccc12)C(=O)O)[C@@H](C)O | 27
CC[C@H](C)[C@H](NC(=O)[C@@H]1CCCN1C(=O)CNC(=O)[C@@H](NC(=O)[C@H](C)N)[C@@H](C)O)C(=O)N[C@@H](CO)C(=O)N[C@H](C(=O)N[C@@H](CC(C)C)C(=O)N[C@@H](Cc1c[nH]c2ccccc12)C(=O)O)[C@@H](C)O | 163
CC[C@H](C)[C@H](NC(=O)[C@@H]1CCCN1C(=O)CNC(=O)[C@@H](NC(=O)[C@H](C)N)[C@@H](C)O)C(=O)N[C@H](C(=O)N[C@H](C(=O)N[C@@H](CC(C)C)C(=O)N[C@@H](Cc1c[nH]c2ccccc12)C(=O)O)[C@@H](C)O)[C@@H](C)O | 110
CC(C)C[C@H](NC(=O)[C@@H](NC(=O)[C@@H](NC(=O)[C@H](CC(C)C)NC(=O)[C@@H]1CCCN1C(=O)CNC(=O)[C@@H](NC(=O)[C@H](C)N)[C@@H](C)O)[C@@H](C)O)[C@@H](C)O)C(=O)N[C@@H](Cc1c[nH]c2ccccc12)C(=O)O | 350
CC(C)C[C@H](NC(=O)[C@@H](NC(=O)[C@@H]1CCCN1C(=O)CNC(=O)[C@@H](NC(=O)[C@H](C)N)[C@@H](C)O)C(C)C)C(=O)N[C@H](C(=O)N[C@@H](CC(C)C)C(=O)N[C@@H](Cc1c[nH]c2ccccc12)C(=O)O)[C@@H](C)O | 185
CC[C@H](C)[C@H](N)C(=O)N[C@@H](C)C(=O)N[C@H](C(=O)N[C@@H](CO)C(=O)N[C@@H](CCSC)C(=O)N[C@@H](C)C(=O)N[C@@H](CC(N)=O)C(=O)N[C@H](C(=O)N[C@@H](Cc1ccccc1)C(=O)O)[C@@H](C)CC)C(C)C | 108
CC[C@H](C)[C@H](N)C(=O)N[C@@H](C)C(=O)N[C@H](C(=O)N[C@@H](CO)C(=O)N[C@H](C(=O)N[C@@H](C)C(=O)N[C@@H](CC(N)=O)C(=O)N[C@H](C(=O)N[C@@H](Cc1ccccc1)C(=O)O)[C@@H](C)CC)[C@@H](C)O)C(C)C | 135
CC[C@H](C)[C@H](NC(=O)[C@H](Cc1ccc(O)cc1)NC(=O)CNC(=O)[C@H](CCCNC(=N)N)NC(=O)[C@H](C)NC(=O)[C@H](C)NC(=O)[C@@H](NC(=O)[C@H](CO)NC(=O)[C@H](C)NC(=O)[C@@H]1CCCN1)[C@@H](C)CC)C(=O)O | 140

same assay, conditions: ex vivo IFNγ ELISPOT, human donors; allele A*0201

SMILES | T cell response [SFC]
CSCC[C@H](NC(=O)[C@H](Cc1ccc(O)cc1)NC(=O)[C@@H]1CCCN1C(=O)[C@H](CC(N)=O)NC(=O)[C@H](CC(C)C)NC(=O)[C@@H](NC(=O)[C@@H](N)CCCCN)C(C)C)C(=O)N1CCC[C@H]1C(=O)N[C@@H](CO)C(=O)N[C@H](C(=O)O)C(C)C | 48
CSCC[C@H](NC(=O)[C@H](Cc1ccc(O)cc1)NC(=O)[C@@H]1CCCN1C(=O)[C@H](CC(N)=O)NC(=O)[C@H](CC(C)C)NC(=O)[C@@H](N)C(C)C)C(=O)N1CCC[C@H]1C(=O)N[C@@H](CO)C(=O)N[C@H](C(=O)O)C(C)C | 987

same assay, conditions: ex vivo IFNγ ELISPOT, human donors; allele A*1101

SMILES | T cell response [SFC]
CSCC[C@H](N)C(=O)N[C@H](C(=O)N[C@@H](CO)C(=O)N[C@@H](CCCNC(=N)N)C(=O)N[C@@H](CC(C)C)C(=O)N[C@@H](CC(C)C)C(=O)N[C@@H](CC(C)C)C(=O)N[C@@H](CC(N)=O)C(=O)N[C@@H](CCCNC(=N)N)C(=O)O)C(C)C | 992

same assay, conditions: ex vivo IFNγ ELISPOT, human donors; allele A*2402

SMILES | T cell response [SFC]
CC(C)C[C@H](NC(=O)[C@H](C)NC(=O)[C@H](CCC(=O)O)NC(=O)[C@H](Cc1ccccc1)NC(=O)[C@H](CCC(=O)O)NC(=O)[C@H](CC(C)C)NC(=O)[C@H](Cc1ccc(O)cc1)NC(=O)[C@@H](N)CCCNC(=N)N)C(=O)NCC(=O)N[C@@H](Cc1ccccc1)C(=O)O | 130
